2 compounds from ChEMBL document CHEMBL1151888, “Synthesis, initial SAR and biological evaluation of 1,6-dihydroimidazo[4,5-d]pyrrolo[2,3-b]pyridin-4-amine derived inhibitors of IkappaB kinase” (Bioorg Med Chem Lett, 2009) can be followed below.

The IC50 is the concentration that inhibits the measured activity by half.

The experiment in a line: Inhibition of IKK1-catalyzed phosphorylation of GST-tagged IkappaBalpha fusion protein by fluorescence polarization assay. Background: In fluorescence polarisation assays a small probe gives low polarisation when free and higher when bound to something large.

SMILES strings stand for the structures.

For `CNc1nc2[nH]c(-c3cccc(CNC(=O)CO)c3)cc2c2c1ncn2C`, the IC50 (read-out: IC50) was 25 nM.

Compound `CNc1nc2[nH]c(-c3cccc(CN)c3)cc2c2c1ncn2C` gave an IC50 of 11 nM.
